In data set [1] the test system is OVCAR3 cells. The data set is described as follows: Cellular proliferation EdU assay, OVCAR3. It is filed as cell-based, human. Conditions: read-out: OVCAR3 IC50, two days.
The nature of data set [2]: Aqueous thermodynamic solubility, shake-flask. It is filed as physicochemical. Conditions: phosphate buffer 0.1 M, pH 7.4, 24 hours, 25° C.
Data set [3] relates to MCF-7 cells. The data set is described as follows: Cellular proliferation EdU assay, MCF-7. It counts as cell-based. Conditions: read-out: MCF-7 IC50, two days.
Data set [4] concerns the target CDK1:CCNB1 (Homo sapiens (Human), UniProt P06493). The data set is described as follows: NanoBRET assay in MCF-7 cells, CDK1. It is filed as cell-based. Conditions: read-out: CDK1 IC50, transfected MCF-7 cells, 2 hours, n = 1 or average.
The target of data set [5] is CDK4:CCND1 (Homo sapiens (Human), UniProt P11802). The data set is described as follows: NanoBRET assay in MCF-7 cells, CDK4. It counts as cell-based. Conditions: read-out: CDK4 IC50, transfected MCF-7 cells, 2 hours, n = 1 or average.
The test system of data set [6] is Caco-2 cells. The data set is described as follows: Caco-2 cell permeability assay. It counts as in vitro ADME. The following applies: Papp; 10 μM, 2 hours, 37° C. (Caco-2 monolayers are a common model of the intestinal barrier.)
The subject of data set [7] is POLR2A Ser2 phosphorylation (CDK9). Briefly: POLR2A Ser2 phosphorylation imaging assay in MCF-7 cells. The following applies: read-out: POLR2A Ser2 phosphorylation IC50, 2 hours. It is filed as cell-based.
In data set [8] the test system is human hepatocytes. Briefly: CLint assessment in human hepatocytes (HH). Conditions: 1 μM. It is filed as in vitro ADME.

The chains behind the UniProt entries cited, without tags or fusion partners.
UniProt P06493, whole entry: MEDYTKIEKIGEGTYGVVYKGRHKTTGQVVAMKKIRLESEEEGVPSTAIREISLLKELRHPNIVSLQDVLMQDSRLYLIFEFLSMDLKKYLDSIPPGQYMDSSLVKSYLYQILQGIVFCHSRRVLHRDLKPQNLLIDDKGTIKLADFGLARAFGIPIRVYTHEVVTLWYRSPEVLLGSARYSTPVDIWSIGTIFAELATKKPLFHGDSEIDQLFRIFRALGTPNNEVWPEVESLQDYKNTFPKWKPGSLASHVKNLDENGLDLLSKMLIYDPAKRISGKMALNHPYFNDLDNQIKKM
UniProt P11802, whole entry: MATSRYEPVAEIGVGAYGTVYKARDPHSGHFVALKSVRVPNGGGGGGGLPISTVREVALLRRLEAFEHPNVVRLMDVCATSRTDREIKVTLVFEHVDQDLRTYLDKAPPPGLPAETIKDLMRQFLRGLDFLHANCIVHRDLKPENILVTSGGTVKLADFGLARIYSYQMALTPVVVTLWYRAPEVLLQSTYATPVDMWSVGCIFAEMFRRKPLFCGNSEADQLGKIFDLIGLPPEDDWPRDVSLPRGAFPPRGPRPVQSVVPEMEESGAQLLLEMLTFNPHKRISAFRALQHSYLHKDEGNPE
UniProt P14635, whole entry partner: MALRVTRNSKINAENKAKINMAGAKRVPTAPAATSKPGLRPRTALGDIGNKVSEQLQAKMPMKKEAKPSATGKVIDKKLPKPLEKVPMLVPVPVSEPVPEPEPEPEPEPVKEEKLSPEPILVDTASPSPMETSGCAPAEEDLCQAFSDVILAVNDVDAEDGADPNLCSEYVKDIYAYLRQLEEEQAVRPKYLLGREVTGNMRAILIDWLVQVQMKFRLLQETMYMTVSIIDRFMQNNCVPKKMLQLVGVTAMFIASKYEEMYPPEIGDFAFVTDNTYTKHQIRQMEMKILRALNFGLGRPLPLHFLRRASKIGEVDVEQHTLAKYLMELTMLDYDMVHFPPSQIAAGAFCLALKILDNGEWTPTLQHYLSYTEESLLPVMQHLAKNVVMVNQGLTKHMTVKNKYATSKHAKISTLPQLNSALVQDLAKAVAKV
UniProt P24385, whole entry partner: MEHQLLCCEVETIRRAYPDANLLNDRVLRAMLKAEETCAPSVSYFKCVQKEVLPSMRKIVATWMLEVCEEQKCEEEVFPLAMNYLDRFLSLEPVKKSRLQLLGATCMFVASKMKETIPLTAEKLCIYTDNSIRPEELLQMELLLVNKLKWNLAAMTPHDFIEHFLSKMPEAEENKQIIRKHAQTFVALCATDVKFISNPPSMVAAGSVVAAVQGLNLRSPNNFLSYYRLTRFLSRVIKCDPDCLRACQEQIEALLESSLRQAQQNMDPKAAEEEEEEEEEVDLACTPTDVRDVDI

One may read the IC50 as the concentration at which inhibition is half-maximal.

Turning to `CC[C@H](Nc1nc(NCc2cnc(C)cc2C)c2ncn(C(C)C)c2n1)[C@@H](C)O`, the IC50 in data set [1] came to 316 nM; in data set [3], 294 nM; in data set [4] it was 5720 nM; in data set [5] it was 2600 nM; in data set [7], 600 nM. Further, the “AQUEOUS SOLUBILITY” value in data set [2] worked out at 740 µM. The “Caco-2 Intrinsic Permeability” value in data set [6] is given as 60.1 1E−6 · cm/s. Also, the “HH CLint” value in data set [8] was determined as 8.3 µL/min/mg.

The record behind these values is patent US20250197425A1, “2,6,9-TRISUBSTITUTED PURINES” (ASTRAZENECA AB, priority 2022, published 2025).
